# Assay results reported in patent US6313114A, “3,4-Dihydro-2H-benzo[1,4]oxazinyl-methyl)-[3-(1H-indol-3yl)-alkyl]- amines” (American Home Products Corp, priority 1999, dated 2001).
# Sequences of proteins named here, by UniProt entry; tags and fusion partners are left off.
# UniProt P31652, whole entry: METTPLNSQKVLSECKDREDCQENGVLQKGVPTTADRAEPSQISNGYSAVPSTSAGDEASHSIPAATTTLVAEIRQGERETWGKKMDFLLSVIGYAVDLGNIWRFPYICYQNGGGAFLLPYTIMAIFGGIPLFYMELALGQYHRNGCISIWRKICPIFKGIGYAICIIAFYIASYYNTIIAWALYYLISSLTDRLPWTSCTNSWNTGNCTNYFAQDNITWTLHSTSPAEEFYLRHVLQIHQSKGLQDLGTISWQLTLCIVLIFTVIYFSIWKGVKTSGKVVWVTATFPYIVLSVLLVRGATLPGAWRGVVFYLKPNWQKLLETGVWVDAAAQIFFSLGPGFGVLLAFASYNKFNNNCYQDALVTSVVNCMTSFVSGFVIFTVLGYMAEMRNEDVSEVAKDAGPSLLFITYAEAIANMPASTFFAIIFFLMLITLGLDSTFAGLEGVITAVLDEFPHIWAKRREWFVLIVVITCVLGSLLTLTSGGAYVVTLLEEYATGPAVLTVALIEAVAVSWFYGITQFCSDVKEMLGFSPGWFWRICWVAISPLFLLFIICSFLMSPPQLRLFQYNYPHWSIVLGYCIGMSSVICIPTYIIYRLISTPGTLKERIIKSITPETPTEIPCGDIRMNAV
# Target: T1, serotonin transporter (Rattus norvegicus, UniProt P31652)
# T1 construct: frontal cortical membranes prepared from male Sprague-Dawley rats; from tissue; host or cells: frontal cortical membranes of male Sprague-Dawley rats
# Experiment: 3H-paroxetine binding to serotonin transporter in rat frontal cortical membranes
# Parameters: species or system male Sprague-Dawley rats
smiles,measurement,value
Fc1ccc2[nH]cc(CCCNCC3CN(Cc4ccccc4)c4ccccc4O3)c2c1 (stereo not shown) [Example 6],Ki,23 nM
